{"source": "patent US20210017295A1", "about": "“BISPECIFIC BINDING AGENTS AND USES THEREOF” (MEMORIAL SLOAN KETTERING CANCER CENTER, priority 2018, published 2021)", "key": {"[1]": {"biological_target": "BSA-(Y)-DOTA-Bn", "experiment": "Surface plasmon resonance (Biacore T100) binding to BSA-(Y)-DOTA-Bn", "conditions": "bivalent analyte model, read-out: overall KD", "protocol": "Biacore T100 Biosensor, CMS sensor chip, and related reagents were purchased from GE Healthcare. A BSA-(Y)-DOTA-Bn conjugate was prepared as previously described. The antigen was immobilized using the Amine Coupling Kit (GE Healthcare). Purified BsAbs were analyzed, and data were fit to a bivalent analyte model using the Biacore T100 evaluation software as previously described."}, "[2]": {"tested_on": "HER2(+) breast cancer cell line AU565", "experiment": "Flow cytometry (FACS) binding to AU565 cells", "type": "cell-based", "conditions": "compared with parental trastuzumab", "protocol": "FIG. 1A-FIG. 1C. In vitro characterization of anti-HER2-C825 BsAb. FIG. 1A: Biochemical purity of HER2-C825 by SE-HPLC chromatogram (UV 280 nm). The major peak (15.933 min) is the fully-paired BsAb with an approximate molecular weight of 210 kDa (>96% integrated area under the curve). 25 min is the salt buffer peak. FIG. 1B: Biacore sensorgrams of BsAbs binding to BSA-(Y)-DOTA-Bn. FIG. 1C: FACS histograms of antibodies binding to the HER2(+) breast cancer cell line AU565. Top of the left histogram recorded the concentrations of antibodies (μg/10^6 cells), and Rituxan was used as negative control (MFI set at 5).\nThe binding affinity to antigen Bovine serum albumin (BSA)-(Y)-DOTA-Bn was measured by Biacore T100. […] The binding to tumor targets was measured by flow cytometry."}, "[3]": {"tested_on": "HER2(+) BT-474 cells", "experiment": "Internalization and cellular processing of ^131I-anti-HER2-C825 in BT-474 cells", "type": "cell-based, human", "protocol": "Trastuzumab is known to internalize upon binding to surface HER2 antigen. […] In brief, cells were plated at a density of 5.0×10^5 cells/mL in 12-well plates and allowed to adhere overnight. Cells were pre-incubated on ice with ^131I-anti-HER2-C825 (prepared using the IODOGEN method to a specific activity of 132 MBq/mg and purified using SEC to radiochemical purity>98%; diluted into complete media; 160 ng/mL; 0.8 nM) for 1 h. Next, the cells were extensively washed with complete media chilled on ice and the plates were transferred to the 37° C. incubator. At various time-points up to 24 h, the radioactive distribution in the outside media, cell-surface, as well as the fraction of activity internalized by the cells was determined (n=3-6 per time-point) by quantification in the gamma counter. An acid-wash protocol was used to strip cell-surface antibody, consisting of treating the cells on ice three times for 5 minutes (min) with 2 M urea, 50 mM glycine, 150 mM NaCl, pH 2.4, and pooling the supernatants. […] Controls consisted either of incubation at 4° C. or wells consisting of the ^131I-anti-HER2-C825 diluted into media only. These control wells were also subjected to TCA precipitation in order to inhibit internalization and determine the basal catabolism (via degradation) rate of the tracer, respectively. For kinetic analysis, data was curve fitted using a nonlinear model, with one-phase association using Prism software package, Graphpad Software Inc., San Diego, Calif."}, "[4]": {"experiment": "Toxicity assessment: weight monitoring and removal criteria", "type": "in vivo, mouse", "conditions": "~85 d"}, "[5]": {"experiment": "Histopathology at necropsy and pathology severity scoring", "type": "in vivo, mouse"}, "[6]": {"tested_on": "HER2(+) BT-474 tumors", "conditions": "mouse, in vivo", "protocol": "The tumor uptake was (as mean±SD) 8.87±2.50, 10.16±4.08, 7.96±2.37, and 5.62±1.44 at 4, 12, 24, and 48 hours (h) post-injection (p.i.), respectively. […] The blood activity was (as mean±SD) 11.3±0.79, 6.57±0.44, 3.98±0.25, and 2.26±0.23 at 4, 12, 24, and 48 h p.i., respectively.\nAt a certain time (T), the system comes into equilibrium and the tumor and the plasma decline in parallel, and at this point after injection the concentration in the plasma was 5% of the injected dose/mL, which converts to 0.060 nM/mL or 60 nM/L."}, "[7]": {"tested_on": "HER2(+) BT-474 tumors", "experiment": "Biodistribution with modified BsAb / clearing agent time intervals (same-day PRIT)", "conditions": "mouse, in vivo", "protocol": "Two separate in vivo anti-HER2-DOTA-PRIT experiments were performed to study the impact of BsAb time interval on ^177Lu-DOTA-Bn uptake (24 h p.i.) in tissue (as mean±SD).\nDuring a second set of experiments (Table 31), the BsAb timing interval was varied, as well as the timing interval between the clearing agent and ^177Lu-DOTA-Bn.\nIn FIG. 2, the time course of bifunctional HER2-C825 antibody uptake onto BT474 tumor is shown. […] Without being bound by any particular theory, this timing may be optimal for clinical application because all of the regents could be easily administered in one day, and the TI's for tumor:blood and tumor:liver, as well as the absolute uptake in tumor will be maintained at levels within 80% of maximum, which is observed at 10 hours in this experiment (see Table 32). At this uptake level, cures in mice have been seen, and the TI's are protective of the blood and kidney, the 2 critical organs. In this case the internalization of antibody-antigen is likely to be helpful because the ^177Lu radiometal captured by bispecific binding agent that is bound to membrane HER2, will be taken up and the radiometal will be trapped in the tumor tissue.\nIt should also be noted that the clearing agent is essential to achieve high TIs."}, "[8]": {"biological_target": "T1, HER2 receptor (Homo sapiens, UniProt P04626)", "T1 construct": "the law of mass action to the case of HER2 antigen on BT474 xenografts in the laboratory; endogenous in cells; host or cells: BT-474 human breast cancer xenografts in mice; values extrapolated to HER2-expressing tumours in man", "experiment": "Law of mass action calculation of HER2 receptor saturation and scaling to man", "conditions": "scaled to man", "description": "From the equilibrium law of mass action, the antibody [L] and tumor receptor [R] concentrations can be thought of as:\nKa=[LR]/[L]*[R];solving for [LR]/[R],which is the proportion of the tumor receptor by antibody; Equation 1:\nKa*[L]=[LR]/[R]. Equation 2:\nSince (L) can be measured in the plasma and since Ka for the antibody is known, one can calculate the degree of saturation [LR]/[R].\nIn order to scale to man, an estimate of the total volume of blood of ˜5000 mLs is used below.\nThis yields about 625 mg of HER2-C825 injected to achieve a [RL]/R=60 (98.4%.) If 1/2 of this or 312.5 mg where injected [RL]/R=30 (97%); at a dose of 156.5 mg, there [RL]/R=15(94%). Without being bound by any particular theory, all of these doses are close to total binding or available antibody to receptor and so there should be little change in bifunctional antibody uptake at the tumor site. These are doses that are very close to doses usually administered e.g. dose of Herceptin that has been empirically determined as being nearly optimal for therapy. (See Herceptin package insert, e.g. 8 mg/kg IV over 90 minutes as initial infusion, or 560 mg for a 70 kg adult, in gastric Ca, for example.)"}, "[9]": {"tested_on": "s.c. BT-474 xenografts"}, "[10]": {"conditions": "medium tumors, fractionated study"}, "[11]": {"conditions": "small tumors, single-cycle study, 55.5 MBq"}}}
{"substance": "anti-HER2-C825: IgG-scFv bispecific antibody from trastuzumab and murine C825; heavy chain SEQ ID No. 15, light chain fusion polypeptide SEQ ID NO: 7", "values": [{"measurement": "Kd", "setting": "[1]", "value": 6, "unit": "nM"}, {"measurement": "binding to HER2(+) AU565 cells by flow cytometry", "setting": "[2]", "value": "equally efficient as parental trastuzumab"}, {"measurement": "K of rate of increase in catabolized radioactivity in extracellular media", "setting": "[3]; 37° C., R^2=0.995", "value": 0.054}, {"measurement": "half-time of increase in catabolized radioactivity in extracellular media", "setting": "[3]; 37° C., R^2=0.995", "value": 12.82, "unit": "h"}, {"measurement": "half-life of remaining surface-bound activity", "setting": "[3]; 37° C., after first 2 h, R^2=0.992", "value": 8.5, "unit": "h"}, {"measurement": "initially bound remaining on the cell surface", "setting": "[3]; BT-474, 37° C., 24 h", "value": "11.1±0.48", "unit": "%"}, {"measurement": "internalized radioactivity", "setting": "[3]; BT-474, 37° C., 24 h", "value": "5.6±0.21", "unit": "%"}, {"measurement": "initially bound remaining on the cell surface", "setting": "[3]; BT-474, 37° C., 24 h, listed as BsAb", "value": 11, "unit": "%"}, {"measurement": "surface-bound activity lost", "setting": "[3]; first 2 h of incubation at 37° C.", "value": "~50", "unit": "%"}, {"measurement": "animals removed: Discovered deceased", "setting": "[4]; [10]", "value": "1/5"}, {"measurement": "animals removed: Tumor burden", "setting": "[4]; [10]", "value": "0/5"}, {"measurement": "animals removed: Weight loss", "setting": "[4]; [10]", "value": "1/5"}, {"measurement": "animals removed: Discovered deceased", "setting": "[4]; [11]", "value": "2/5"}, {"measurement": "animals removed: Tumor burden", "setting": "[4]; [11]", "value": "0/5"}, {"measurement": "animals removed: Weight loss", "setting": "[4]; [11]", "value": "0/5"}, {"measurement": "Histopathologic findings, Bone marrow", "setting": "[5]; mouse, in vivo", "value": "N"}, {"measurement": "Histopathologic findings, Bones", "setting": "[5]; mouse, in vivo", "value": "N"}, {"measurement": "Score: Bone Marrow, Diffuse myelofibrosis", "setting": "[5]; mouse, in vivo", "value": 0}, {"measurement": "Score: Bone Marrow, Erythroid compartment is depleted of both mature and immature forms", "setting": "[5]; mouse, in vivo", "value": 0}, {"measurement": "Score: Bone Marrow, Focal myelofibrosis", "setting": "[5]; mouse, in vivo", "value": 1}, {"measurement": "Score: Bone Marrow, Multifocal myelofibrosis", "setting": "[5]; mouse, in vivo", "value": 0}, {"measurement": "Score: Spleen, EMH is: 2", "setting": "[5]; mouse, in vivo", "value": 2}, {"measurement": "Score: Spleen, EMH is: 2-3", "setting": "[5]; mouse, in vivo", "value": 0}, {"measurement": "Score: Spleen, EMH is: 3", "setting": "[5]; mouse, in vivo", "value": 0}, {"measurement": "Score: Spleen, EMH is: 3-4", "setting": "[5]; mouse, in vivo", "value": 0}, {"measurement": "Total organ severity score: Bone Marrow", "setting": "[5]; mouse, in vivo", "value": 1}, {"measurement": "Total organ severity score: Kidney", "setting": "[5]; mouse, in vivo", "value": 3}, {"measurement": "Total organ severity score: Spleen", "setting": "[5]; mouse, in vivo", "value": 2}, {"measurement": "Histopathologic findings, Tumor", "setting": "[5]; small tumors, single-cycle study, ~85 d, individual animals, listed as BsAb", "value": "No tumor"}, {"measurement": "approximation of tumor half-life", "setting": "[6]", "value": "~36", "unit": "h"}, {"measurement": "blood half-life", "setting": "[6]", "value": 8.1, "unit": "h"}, {"measurement": "time at which maximum tumor uptake is observed", "setting": "[7]", "value": 10, "unit": "h"}, {"measurement": "receptor saturation", "setting": "[8]; 312.5 mg injected", "value": 97, "unit": "%"}, {"measurement": "receptor saturation", "setting": "[8]; about 625 mg injected", "value": 98.4, "unit": "%"}, {"measurement": "receptor saturation", "setting": "[8]; dose of 156.5 mg", "value": 94, "unit": "%"}, {"measurement": "tumor volume, % of pre-treatment volume", "setting": "[9]; medium BT-474 tumors, fractionated study, 85 d", "value": "396±252", "unit": "%"}, {"measurement": "complete responses (CR), animals", "setting": "[9]; small BT-474 tumors (palpable-30 mm^3), single-cycle study, 55.5 MBq, 85 d, listed as BsAb", "value": "1/5"}, {"measurement": "complete responses (CR)", "setting": "[9]; small BT-474 tumors, single-cycle study, 55.5 MBq, 85 d", "value": 20, "unit": "%"}, {"measurement": "cures", "setting": "[9]; small BT-474 tumors, single-cycle study, 55.5 MBq, necropsy ~85 d", "value": 33.3, "unit": "%"}, {"measurement": "cures, animals", "setting": "[9]; small BT-474 tumors, single-cycle study, 55.5 MBq, necropsy ~85 d, listed as BsAb", "value": "1/3"}]}
